Measurements: patent publication US20240343813A1, “COMBINATION THERAPY AND RELATED METHODS” (Bicara Therapeutics Inc., priority 2023, published 2024)

Test system: H1792 cells treated with hTGFβ
Assay: Cell morphology (EMT hallmark) after long-term TGFβ treatment
Assay type: cell-based
Settings: H1792 treated with hTGFβ 4 ng/ml for at least two weeks; BCA101 treatment
Description: Briefly, hKRAS G12C inhibitor resistance was induced in H1792 cells by treating the cells with hTGFβ (4 ng/ml) for at least two weeks. The resultant hKRAS G12C inhibitor resistant H1792 cells were treated with titrating concentrations of a AMG510 and a fixed concentration (50 μg/ml) of BCA101 for 72 hours. […] Cytotoxicity was evaluated using the CellTiter Glo® Luminescent Cell Viability Assay according to manufacturer's instructions (Promega) (as described in Example 6.3).

## BCA101: αEGFR x TGFβRII ECD C-terminal LC fusion protein; amino acid sequence SEQ ID NOS: 125-126
  cell morphology (TGFβ-induced spindle-like morphology, hallmark of EMT): restored to normal morphology
